Columns and labels:
[1] = ADC hydrophilicity by hydrophobic interaction chromatography (HIC); format: physicochemical; conditions: HIC-HPLC, TSKgel Butyl-NPR
KB xenograft tumor = experiment: Pharmacodynamic evaluation in KB xenograft tumor mouse model; format: in vivo, nu/nu nude mice; conditions: single intravenous injection; for Mean tumor volume (Day 0): Day 0 (day of grouping), mean ± standard error
Excerpt: (§1) Cells were taken from the FRα-positive cell strain KB and inoculated into the right forelimb axilla of nu/nu nude mice at 10^7 cells/mouse (6 mice per group). When the mean tumor volumes of the mice reached about 100 mm^3 (groups 1-6) and 145 mm^3 (groups 7-8), the mice were randomly grouped and subjected to administration by a single intravenous injection. The day of grouping was defined as Day 0, and the administration was started on Day 0. After tumor grafting, the experimental animals were routinely monitored for tumor growth and the effect of treatment on the normal behavior, specifically the activity, food and water intake, body weight gain or loss (the body weight was measured twice a week), and abnormalities in eyes, fur, and other aspects. Calculation formula for tumor volume: Tumor volume (mm^3) = 1/2 × (a × b^2) (where a represents the long diameter, and b represents the short diameter). Table 15: Efficacy of groups 1-6 in KB xenograft tumor model

NCI-H441 xenograft tumor = experiment: Pharmacodynamic evaluation in NCI-H441 xenograft tumor mouse model; format: in vivo, nu/nu nude mice; conditions: NCI-H441, 1 mg/kg, single intravenous injection
Excerpt: as §1, with “strain NCI-H441” for “strain KB”, “(groups 1-6),” for “(groups 1-6) and 145 mm^3 (groups 7-8),”, “Table 17:” for “Table 15:”, “of each group” for “of groups 1-6”, “in NCI-H441” for “in KB”

SW620 xenograft tumor = experiment: Pharmacodynamic evaluation in SW620 xenograft tumor mouse model; format: in vivo, nu/nu nude mice; conditions: SW620, 1.5 mg/kg, single intravenous injection
Excerpt: as §1, with “strain SW620” for “strain KB”, “about 130” for “about 100”, “(groups 1-2),” for “(groups 1-6) and 145 mm^3 (groups 7-8),”, “Table 18:” for “Table 15:”, “of each group” for “of groups 1-6”, “in SW620” for “in KB”

OV-90 xenograft tumor = experiment: Pharmacodynamic evaluation in OV-90 xenograft tumor mouse model; format: in vivo, NCG and NOD SCID immunodeficient mice; conditions: for Mean tumor volume (Day 0): Day 0 (day of grouping); for Mean tumor volume (Day 0) / Mean tumor volume (Day 11): mean ± standard error; for TGI(%) / Mean tumor volume (Day 11): Day 11
Excerpt: Cells were taken from the FRα-positive cell strain OV-90 and inoculated into the right forelimb axilla of NCG and NOD SCID immunodeficient mice aged 4-6 weeks at 10^7 cells/mouse (3 mice per group). When the mean tumor volumes of the mice reached about 180 mm^3 (groups 1-3) and 145 mm^3 (groups 4-5), the mice were randomly grouped and subjected to administration. The day of grouping was defined as Day 0, and the administration was started on Day 0. After tumor grafting, the experimental animals were routinely monitored for tumor growth and the effect of treatment on the normal behavior, specifically the activity, food and water intake, body weight gain or loss (the body weight was measured twice a week), and abnormalities in eyes, fur, and other aspects. Calculation formula for tumor volume: Tumor volume (mm^3) = 1/2 × (a × b^2) (where a represents the long diameter, and b represents the short diameter). Table 19: Efficacy of each group in OV-90 xenograft tumor model

[2] = OV-90, NCG immunodeficient mice, 1 mg/kg
[3] = OV-90, NCG immunodeficient mice, 5 mg/kg
[4] = OV-90, NOD SCID immunodeficient mice, 3 mg/kg

B1: F-ADC55-1-8 (conjugate)
heavy: EVQLVESGGGVVQPGRSLRLSCSASGFTFSGYGLSWVRQAPGKGLEWVAMISSGGSYTYYADSVKGRFAISRDNAKNTLFLQMDSLRPEDTGVYFCARHGDDPAWFAYWGQGTPVTVSSASTKGPSVFPLAPSSKSTSGGTAALGCLVKDYFPEPVTVSWNSGALTSGVHTFPAVLQSSGLYSLSSVVTVPSSSLGTQTYICNVNHKPSNTKVDKKV[human IgG1 Fc not given here]
light: DIQLTQSPSSLSASVGDRVTITCSVSSSISSNNLHWYQQKPGKAPKPWIYGTSNLASGVPSRFSGSGSGTDYTFTISSLQPEDIATYYCQQWSSYPYMYTFGQGTKVEIKRTVAAPSVFIFPPSDEQLKSGTASVVCLLNNFYPREAKVQWKVDNALQSGNSQESVTEQDSKDSTYSLSSTLTLSKADYEKHKVYACEVTHQGLSSPVTKSFNRGEC
Retention time [1]: 6.123 min
Mean tumor volume (Day 0) (KB xenograft tumor; 1.5 mg/kg): 145.4±25.9 mm^3
TGI(%) (KB xenograft tumor; 1.5 mg/kg, Day 20): 105.6%
Mean tumor volume (Day 20) (KB xenograft tumor; 1.5 mg/kg, Day 20, mean ± standard error): 82.1±85.8 mm^3
Mean tumor volume (Day 0) (KB xenograft tumor; 3 mg/kg): 98.6±10.6 mm^3
TGI(%) (KB xenograft tumor; 3 mg/kg, Day 30): 104.7%
Mean tumor volume (Day 30) (KB xenograft tumor; 3 mg/kg, Day 30, mean ± standard error): 4.4±7.4 mm^3
CR (KB xenograft tumor; 3 mg/kg, mice that achieved CR, 6 mice per group): 4
Mean tumor volume (Day 0) (NCI-H441 xenograft tumor; Day 0 (day of grouping), mean ± standard error): 107.1±19.5 mm^3
TGI(%) (NCI-H441 xenograft tumor; Day 32): 117.5%
Mean tumor volume (Day 32) (NCI-H441 xenograft tumor; Day 32, mean ± standard error): 33.9±13.0 mm^3
Mean tumor volume (Day 0) (SW620 xenograft tumor; Day 0 (day of grouping)): 130.3±15.3 mm^3
Mean tumor volume (Day 14) (SW620 xenograft tumor; Day 14): 35.0±18.1 mm^3
TGI(%) (SW620 xenograft tumor; Day 14): 113.3%
Mean tumor volume (Day 0) (OV-90 xenograft tumor; [2]): 180.7±33.8 mm^3
TGI(%) (OV-90 xenograft tumor; [2]): 110.9%
Mean tumor volume (Day 11) (OV-90 xenograft tumor; [2]): 104.9±30.0 mm^3
Mean tumor volume (Day 0) (OV-90 xenograft tumor; [3]): 181.4±37.7 mm^3
TGI(%) (OV-90 xenograft tumor; [3]): 120.7%
Mean tumor volume (Day 11) (OV-90 xenograft tumor; [3]): 37.5±1.3 mm^3
Mean tumor volume (Day 0) (OV-90 xenograft tumor; [4]): 145.2±10.7 mm^3
TGI(%) (OV-90 xenograft tumor; [4]): 126.1%
Mean tumor volume (Day 11) (OV-90 xenograft tumor; [4]): 29.2±8.4 mm^3

Reference: EP4702992A1, “ANTIBODY-DRUG CONJUGATE” (priority 2023, dated 2024)
